Measured values as given in US6664252B2, “4-aminopyrrolo[2,3-d]pyrimidine compounds specific to adenosine A2a receptor and uses thereof” (OSI Pharmaceuticals, Inc., priority 1999, dated 2003).

Amino acid sequences for entries named in this document (tags omitted). A change or cut given only in a name is not applied to a line headed by its entry.
UniProt P30542, whole entry: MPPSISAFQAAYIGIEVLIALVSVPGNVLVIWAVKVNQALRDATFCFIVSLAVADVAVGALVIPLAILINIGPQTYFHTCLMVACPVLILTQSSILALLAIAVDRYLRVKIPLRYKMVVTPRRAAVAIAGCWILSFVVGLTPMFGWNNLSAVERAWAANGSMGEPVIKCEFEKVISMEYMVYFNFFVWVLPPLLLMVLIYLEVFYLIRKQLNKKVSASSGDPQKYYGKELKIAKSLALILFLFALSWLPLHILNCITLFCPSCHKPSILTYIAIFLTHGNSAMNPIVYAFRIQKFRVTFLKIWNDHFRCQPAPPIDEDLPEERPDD

Columns and labels:
human adenosine A1 (A1R) = biological target: T1, human adenosine A1 (A1R) (Homo sapiens, UniProt P30542); assay: Yeast β-Galactosidase reporter gene assay, inhibition of NECA-induced activity, strain CY12660; format: cell-based; conditions: Table 12
T1 construct: yeast alpha-factor (MFalpha1) prepro leader (N, cleaved yes); expressed in transfected cells; host or cells: Saccharomyces cerevisiae (strain CY12660 and related strains carrying plasmid p5095)

[1] = biological target: T2, human A2b receptor subtype (Homo sapiens, UniProt P29275); assay: Adenosine 2b receptor subtype competition radioligand binding, [3H]DPCPX, HEK293 membranes
T2 sequence (P29275 1-332): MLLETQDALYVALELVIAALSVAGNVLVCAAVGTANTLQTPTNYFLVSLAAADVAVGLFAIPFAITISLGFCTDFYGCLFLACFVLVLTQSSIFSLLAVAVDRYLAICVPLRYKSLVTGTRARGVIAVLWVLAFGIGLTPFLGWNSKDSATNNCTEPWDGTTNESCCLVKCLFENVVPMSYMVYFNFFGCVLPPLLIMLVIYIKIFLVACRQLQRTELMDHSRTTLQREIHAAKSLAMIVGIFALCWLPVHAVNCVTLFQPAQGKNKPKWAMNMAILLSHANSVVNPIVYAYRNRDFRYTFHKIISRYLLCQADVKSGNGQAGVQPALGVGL

[2] = biological target: human A1 receptor subtype (Homo sapiens, UniProt P30542); assay: biochemical

| IC50 (human adenosine A1 (A1R)) | SMILES | Ki [1] | Ki [2] |
| --- | --- | --- | --- |
| > 10 µM | Cc1[nH]c2nc(-c3ccccc3)nc(NCCC(=O)O)c2c1C [Compound 1204] | – | – |
| – | CC(=O)NCCNc1nc(-c2ccccc2)nc2[nH]c(COc3ccc(Cl)cc3)cc12 [Compound 1402, 4-(2-acetylaminoethyl)amino-6-(4-chlorophenoxy)methyl-2-phenyl-7H-pyrrolo[2,3d]pyrimidine] | 22 nM | 825 nM |
